We go through one substance from US20090176802A1, “ANTIDOTES TO EXOGENOUS NEUROTOXIC AGENTS” (published 2009).

Amino acid sequences for entries named in this document (tags omitted). A change or cut given only in a name is not applied to a line headed by its entry.
UniProt Q5U3Y7: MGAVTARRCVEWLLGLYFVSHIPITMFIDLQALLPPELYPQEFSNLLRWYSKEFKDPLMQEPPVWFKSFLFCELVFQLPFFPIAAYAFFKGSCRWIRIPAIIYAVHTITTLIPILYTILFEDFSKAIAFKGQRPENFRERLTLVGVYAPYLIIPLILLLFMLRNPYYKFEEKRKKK
UniProt P22303: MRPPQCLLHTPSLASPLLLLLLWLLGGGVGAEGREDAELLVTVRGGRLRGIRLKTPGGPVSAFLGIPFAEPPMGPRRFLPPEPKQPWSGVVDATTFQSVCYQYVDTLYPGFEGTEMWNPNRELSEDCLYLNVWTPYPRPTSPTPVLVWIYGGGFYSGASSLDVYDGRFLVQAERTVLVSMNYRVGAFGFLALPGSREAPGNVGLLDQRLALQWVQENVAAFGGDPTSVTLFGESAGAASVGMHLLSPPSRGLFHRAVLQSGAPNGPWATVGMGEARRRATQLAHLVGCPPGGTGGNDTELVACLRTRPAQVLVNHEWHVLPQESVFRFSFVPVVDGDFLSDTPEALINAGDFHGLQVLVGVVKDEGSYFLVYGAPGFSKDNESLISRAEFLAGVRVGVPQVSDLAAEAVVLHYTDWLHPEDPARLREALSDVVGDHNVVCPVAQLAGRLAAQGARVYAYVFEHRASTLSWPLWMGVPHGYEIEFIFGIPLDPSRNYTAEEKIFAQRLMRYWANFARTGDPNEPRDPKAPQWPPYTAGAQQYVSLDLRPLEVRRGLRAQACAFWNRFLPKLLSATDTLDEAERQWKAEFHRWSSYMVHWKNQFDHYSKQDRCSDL
UniProt Q99720: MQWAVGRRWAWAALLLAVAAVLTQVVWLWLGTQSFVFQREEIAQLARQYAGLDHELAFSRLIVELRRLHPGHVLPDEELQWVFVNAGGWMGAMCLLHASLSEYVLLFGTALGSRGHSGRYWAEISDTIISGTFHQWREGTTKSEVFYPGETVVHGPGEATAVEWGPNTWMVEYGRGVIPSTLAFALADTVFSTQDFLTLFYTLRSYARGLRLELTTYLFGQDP

Bounds are passed on as bounds.

In one assay the target is Sigma-2 receptor (Rattus norvegicus, UniProt Q5U3Y7). Kind of assay: Sigma-2 receptor binding, [3H]-DTG.
Assay [1] addresses Recombinant human acetylcholinesterase (Homo sapiens, UniProt P22303). The assay can be described thus: Acetylcholinesterase assay. Conditions: for IC50: human AchE.
In assay [2] the test system is Central imidazoline-2 receptor (I2). Kind of assay: Central imidazoline-2 receptor (I2) binding, [3H]-idazoxan.
The subject of assay [3] is Muscarinic receptor (non-specific). Kind of assay: Muscarinic receptor (non-specific) binding, [3H]-QNB.
Assay [4] concerns the target Human recombinant sigma-1 receptor (Homo sapiens, UniProt Q99720). Kind of assay: Human recombinant sigma-1 receptor binding, [3H]-(+)-pentazocine.
The test system of assay [5] is Neuronal nicotinic α-BGTX-insensitive receptor. The assay can be described thus: Neuronal nicotinic α-BGTX-insensitive receptor binding, [3H]-cytisine.
Where [6] appears, read: compared with literature (Greig et al.).

For the substance “dimethyl-carbamic acid 2,3-bis-dimethylcarbamoyloxy-6-[4-(4-ethyl-piperazin-yl)-butyryl]-phenyl ester”, the IC50 at Sigma-2 receptor (Sigma-2, rat cortex, 5 nM [3H]-DTG) was over 10000 nM; on Sigma-2 receptor (σ-2 receptor) it was under 10000 nM; in assay [1] it was 1300 nM; in assay [1] (substrate AMTCh 50 μM, 30 minutes at 37° C.) it was 1300 nM; in assay [2] (I2 (central), rat cortex, 2 nM [3H]-idazoxan), over 10000 nM; in assay [3] (M (non-specific), rat cortex, 0.05 nM [3H]-QNB), over 10000 nM. Moreover, the concentration for half-maximal inhibition (IC50) was 680 nM in assay [4] (Sigma-1 (h), expressed in Jurkat cells, 8 nM [3H]-(+)-pentazocine); 600 nM in assay [4] (human sigma-1 receptor); 680 nM in assay [4] (σ-1 receptor); over 10000 nM in assay [5] (N (neuronal, α-BGTX insensitive), rat cortex, 1.5 nM [3H]-cytisine). Also, the “ligand for the receptor (in words)” value (at Sigma-2 receptor (sigma-2); in assay [2] (I2); in assay [3] (M); in assay [5] (N (α-BGTX insensitive))) was “not a ligand” each time. Moreover, in assay [1] (setting [6]), the “selectivity for human AchE relative to donezepil” value is on record as 6.8 fold. Moreover, the “selectivity for human AchE relative to galantamine” value in assay [1] (setting [6]) stood at 1.6 fold. In addition, the nH in assay [4] (Sigma-1 (h), Hill coefficient) worked out at 1.2. The inhibition constant (Ki) in assay [4] (σ-1 receptor) was 560 nM.
